The values below are quoted from earlier work in paper PMC7781173 (Amino Acids, 2021).

This series concerns C5. The following applies: background statement, reference not given; cited from earlier work.

As for “eculizumab: already approved therapeutic for paroxysmal nocturnal hemoglobinuria, atypical hemolytic uremic syndrome, neuromyelitis optica and MG”, the C5 cleavage entry is “inhibit C5 cleavage”.
